Here are results for one molecule from patent US20200299400A1 (published 2020).

This experiment deals with T1, human GITR (human, UniProt Q9Y5U5 26-241).
T1 sequence (looked up): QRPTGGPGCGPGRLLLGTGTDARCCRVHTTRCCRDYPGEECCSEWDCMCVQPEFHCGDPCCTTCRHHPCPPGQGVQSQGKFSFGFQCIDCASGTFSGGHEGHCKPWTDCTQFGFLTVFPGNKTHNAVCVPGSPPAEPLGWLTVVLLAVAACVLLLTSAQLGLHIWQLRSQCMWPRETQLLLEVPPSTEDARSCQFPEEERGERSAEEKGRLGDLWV
As to the kind of experiment: cell-based or functional assay.

B1: GITR.6-IgG1f (antibody)
heavy: QVQLVESGGGVVQPGRSLRLSCAASGFTFSSYGMHWVRQAPGKGLEWVAVIWYEGSNKYYADSVKGRFTISRDNSKNTLYLQMNSLRAEDTAVYYCARGGSMVRGDYYYGMDVWGQGTTVTVSSASTKGPSVFPLAPSSKSTSGGTAALGCLVKDYFPEPVTVSWNSGALTSGVHTFPAVLQSSGLYSLSSVVTVPSSSLGTQTYICNVNHKPSNTKVDKRV[left out - human IgG1 Fc]
light: AIQLTQSPSSLSASVGDRVTITCRASQGISSALAWYQQKPGKAPKLLIYDASSLESGVPSRFSGSGSGTDFTLTISSLQPEDFATYYCQQFNSYPYTFGQGTKLEIKRTVAAPSVFIFPPSDEQLKSGTASVVCLLNNFYPREAKVQWKVDNALQSGNSQESVTEQDSKDSTYSLSSTLTLSKADYEKHKVYACEVTHQGLSSPVTKSFNRGEC
Turning to B1, the “NFKB signaling (phospho-p65), CD4+ T cells, Emax” value worked out at 10.8% and the “NFKB signaling (phospho-p65), CD8+ T cells, Emax” value turned out to be 27%.
